Key:
Assay in all cases: MTT assay
Assay type in all cases: cell-based, human
[1] = test system: HeLa cells; settings: IC50 HEK-293 / IC50 HeLa
[2] = test system: SKOV-3 cells; settings: IC50 HEK-293 / IC50 SKOV-3
[3] = test system: MCF-7 cells; settings: IC50 HEK-293 / IC50 MCF-7

Structure (SMILES): Cc1cc(S(=O)(=O)NC(=O)C=Cc2ccccc2)c(SCc2cccc3ccccc23)cc1Cl [Compound 16a, N–[4–Chloro–5–methyl–2–(naphthalen–1–ylmethylthio)benzenesulfonyl]cinnamamide]
- Selectivity index (SI) [1]: 1.0
- Selectivity index (SI) [2]: 1.1
- Selectivity index (SI) [3]: 0.9

Source: publication PMC10096175, “An In Vitro Antimicrobial, Anticancer and Antioxidant Activity of N–[(2–Arylmethylthio)phenylsulfonyl]cinnamamide Derivatives” (Molecules, 2023)
